Source: patent US20050227956A1, “Control of mold growth on wood” (priority 2004, published 2005)

Test system: Trichoderma virens
Test: Six-well plate screening test
Format: cell-based
Details: 10 days of incubation at room temperature

O=C1C2CC=CCC2C(=O)N1SC(Cl)(Cl)C(Cl)Cl (stereo not shown)
Minimum Inhibitory Concentrations (MIC): >100 mg/kg
